For one compound, IC50 results are on record in PubChem BioAssay AID651563 (Sanford-Burnham Center for Chemical Genomics, 2012).

The assay has as its system C. elegans VP596 Pgst-4::GFP/RFP ratio, acrylamide, 24 h. The assay can be described thus: C. elegans gst-4 reporter suppression, concentration series – whole organism, GFP/RFP fluorescence ratio, set 2, strain VP596, SKN-1 inhibitor project, dose response (AID 651563).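 Further: red signal is driven by the dop-3 promoter and serves as the normalizer.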

Activity calls are given as the source filed them.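 How the source made its calls: active means compounds whose IC50 is 20 micromolar or lower, counted as confirmed SKN-1 reporter blockers; inactive means the rest.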

As a reminder, the IC50 is the concentration needed to halve the response being measured. As to `CCc1ccc(-c2nc(-c3ccncc3)no2)cc1`, the IC50 was inactive: 21.8 µM.
